The data set in a line: in vivo. The conditions noted are these: mouse.

Broadly, the LD50 is the dose at which mortality reaches 50%. `O=C(O)[BH2-][n+]1ccccc1` [XVI, Pyridine-carboxyborane] yielded an LD50 above 200 mg/kg.
